Test results taken from publication PMC2893280.

Target: bovine mitochondrial elongation factor Ts (EF-Tsmt), wild type (bovine) (UniProt P43896)
Test: native gel or EMSA

bovine mitochondrial elongation factor Tu (EF-Tumt), wild type (from UniProt P49410 44-452) (natural protein)
percent of EF-Tsmt bound at equal molar amounts of the two factors: 60%
